# Experimental data published in publication PMC10868801, “Characterization of covalent inhibitors that disrupt the interaction between the tandem SH2 domains of SYK and FCER1G phospho-ITAM” (PLOS ONE, 2024).
# Target: SYK-tSH2 / FCER1G p-ITAM interaction (Homo sapiens, UniProt P43405)
# Test: TR-FRET assay of 6xHis-SYK-tSH2 with FITC-labeled FCER1G p-ITAM peptide
# Type: biochemical
# Settings: read-out: TR-FRET IC50; IC50 ± standard deviation (n = 3)
row,SMILES,IC50 [µM]
1,Cc1n[nH]c(=O)n1C,> 100
2,Cn1c(=O)c2nc(S)n(C)c2n(C)c1=O,2.93
3,Cn1c(=O)c2ncn(C)c2n(C)c1=O,> 100
